Experimental data published in patent publication US20100285988A1 (Memorial Sloan Kettering, published 2010).

Biological target: γ-secretase (human; HeLa cell membrane / solubilized HeLa membrane; endogenous in HEK293 cells) (human, UniProt P49768 1-467; Q92542 34-709; Q9NZ42 1-101; Q96BI3 1-265)
Experiment: cell-based or functional assay

B1: Aβ17-23BPA^20 (peptide)
peptide: LVFFAED
modifications: p-benzoyl-L-phenylalanine (BPA) in place of Phe at position 20 of Aβ (4th residue of LVFFAED)
For B1, the “IC50, inhibition of in vitro γ-secretase activity” value was 81 nM and the “potency on in vitro γ-secretase, relative to Aβ17-23” value was 19 fold.

In the case of LVFFA [Aβ17-21 (LVFFA) peptide], the “IC50, inhibition of γ-secretase activity” value is reported as 280 nM.

With LVFFAED [Aβ17-23 (LVFFAED) peptide] the “IC50, inhibition of in vitro γ-secretase activity on APP substrate (S4)” value was 1500 nM, the “IC50, inhibition of γ-secretase activity” value was 1500 nM and the “IC50, inhibition of γ-secretase cleavage of Notch substrate” value was 10000 nM.

B2: Aβ17-23BPA^19 (peptide)
peptide: LVFFAED
modifications: p-benzoyl-L-phenylalanine (BPA) in place of Phe at position 19 of Aβ (3rd residue of LVFFAED)
In the case of B2, the “inhibitory activity on in vitro γ-secretase, relative to Aβ17-23” value is reported as 3 fold.

B3: Aβ17-23BPA^20-biotin (peptide)
peptide: LVFFAED
modifications: p-benzoyl-L-phenylalanine (BPA) in place of Phe at position 20 of Aβ (4th residue of LVFFAED); biotin moiety at the C-terminus
notes: used at 300 nM; also called biotinylated photoreactive peptide Aβ17-23; photoactive peptide
With B3 the “IC50, inhibition of in vitro γ-secretase activity” value was 83 nM.

LVFF [Aβ17-20 (LVFF) peptide] was tested, and the “IC50, inhibition of γ-secretase activity” value was 940 nM and the “inhibitory potency on in vitro γ-secretase activity, relative to LVFFA” value was roughly 6 fold.
